structure (smiles),measurement,setting,value
"CCCCCCCCCCCC(=O)OCC(O)CO (centres unmarked) [GML, glycerol monolaurate]",GML concentration up to which N. gonorrhoeae grew,N. gonorrhoeae,up to 50 μg/ml
same,GML concentration up to which S. aureus MN8 grew,S. aureus MN8,up to 100 μg/ml

# Reference: patent US20050215634A1 (priority 2003, published 2005)
